Values of other authors, collected in PMC6314986.

Conditions: urine of the deceased individual; cited from earlier work

Question: Which “Urinary level of unchanged compound, previously found” value does the source give for CCCCCn1cc(C(=O)N2CCN(C)CC2)c2ccccc21 here?
Answer: 527 ng/mL
